Values of other authors as cited in patent publication US20140080772A1, “TREATMENTS FOR MELANOMA” (The Board of Regents of the University of Texas System, priority 2012, published 2014).

Amino acid sequences for entries named in this document (tags omitted).
UniProt P49841, whole entry: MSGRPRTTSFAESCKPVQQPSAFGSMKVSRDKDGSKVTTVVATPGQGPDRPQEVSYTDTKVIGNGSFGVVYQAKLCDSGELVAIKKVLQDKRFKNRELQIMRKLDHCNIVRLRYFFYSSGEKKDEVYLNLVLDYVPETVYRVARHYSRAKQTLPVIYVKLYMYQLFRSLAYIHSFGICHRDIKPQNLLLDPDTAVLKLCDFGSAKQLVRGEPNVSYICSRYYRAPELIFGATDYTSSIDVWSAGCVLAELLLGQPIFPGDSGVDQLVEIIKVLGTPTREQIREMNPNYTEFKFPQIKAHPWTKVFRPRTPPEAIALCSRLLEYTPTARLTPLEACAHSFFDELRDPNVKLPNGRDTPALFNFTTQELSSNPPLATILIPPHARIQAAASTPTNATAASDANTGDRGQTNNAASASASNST

Biological target: GSK3β (Homo sapiens, UniProt P49841)
Settings: cited from earlier work

## Cn1cc(C2=C(c3cn(CCCSC(=N)N)c4ccccc34)C(=O)NC2=O)c2ccccc21 [RO 31-8220]
  IC50: 15 nM
